One substance from paper PMC8421203 (Nucleic Acids Research, 2021) can be followed below.

What is called Kd is the constant that tells how readily two partners part at equilibrium. High values mean weaker binding, low ones tighter binding.

This test deals with Zebrafish PHF14PZP (278–487) (zebrafish). As to the kind of experiment: ITC. In general terms: In ITC the heat of successive injections is recorded.

Take “H3(1–15) K9me3 peptide (from UniProt P68431 2-16)”: the Kd stood at 76.6 µM.
